Assay results as given in a protein production outcome set (Wang et al. 2014).

Experiment: label from the status in PepcDB records

Row | Sequence | protein production
1 | MFQRLNKMFVGEVSSSSNQEPEFNEKEDDEWILVDFIDTCTGFSAEEEEEEEDISEESPTEHPSVFSCLPASLECLADTSDSCFLQFESCPMEESWFITPPPCFTAGGLTTIKVETSPMENLLIEHPSMSVYAVHNSCPGLSEATRGTDELHSPSSPRVEAQNEMGQHIHCYVAALAAHTTFLEQPKSFRPSQWIKEHSERQPLNRNSLRRQNLTRDCHPRQVKHNGWVVHQPCPRQYNY | failed
2 | MSSGLRAADFPRWKRHISEQLRRRDRLQRQAFEEIILQYNKLLEKSDLHSVLAQKLQAEKHDVPNRHEISPGHDGTWNDNQLQEMAQLRIKHQEELTELHKKRGELAQLVIDLNNQMQRKDREMQMNEAKIAECLQTISDLETECLDLRTKLCDLERANQTLKDEYDALQITFTALEGKLRKTTEENQELVTRWMAEKAQEANRLNAENEKDSRRRQARLQKELAEAAKEPLPVEQDDDIEVIVDETSDHTEETSPVRAISRAATKRLSQPAGGLLDSITNIFGRRSVSSFPVPQDNVDTHPGSGKEVRVPATALCVFDAHDGEVNAVQFSPGSRLLATGGMDRRVKLWEVFGEKCEFKGSLSGSNAGITSIEFDSAGSYLLAASNDFASRIWTVDDYRLRHTLTGHSGKVLSAKFLLDNARIVSGSHDRTLKLWDLRSKVCIKTVFAGSSCNDIVCTEQCVMSGHFDKKIRFWDIRSESIVREMELLGKITALDLNPERTELLSCSRDDLLKVIDLRTNAIKQTFSAPGFKCGSDWTRVVFSPDGSYVAAGSAEGSLYIWSVLTGKVEKVLSKQHSSSINAVAWSPSGSHVVSVDKGCKAVLWAQY | failed
